Earlier results in US11377636B2, “Endogenous retrovirus transcription as a marker for primate naive pluripotent stem cells” (Max-Delbrück-Centrum für Molekulare Medizin in der …, priority 2014, dated 2022).

Chains of the proteins cited; added tags and fusions are not shown.
UniProt P06239, whole entry, species assumed: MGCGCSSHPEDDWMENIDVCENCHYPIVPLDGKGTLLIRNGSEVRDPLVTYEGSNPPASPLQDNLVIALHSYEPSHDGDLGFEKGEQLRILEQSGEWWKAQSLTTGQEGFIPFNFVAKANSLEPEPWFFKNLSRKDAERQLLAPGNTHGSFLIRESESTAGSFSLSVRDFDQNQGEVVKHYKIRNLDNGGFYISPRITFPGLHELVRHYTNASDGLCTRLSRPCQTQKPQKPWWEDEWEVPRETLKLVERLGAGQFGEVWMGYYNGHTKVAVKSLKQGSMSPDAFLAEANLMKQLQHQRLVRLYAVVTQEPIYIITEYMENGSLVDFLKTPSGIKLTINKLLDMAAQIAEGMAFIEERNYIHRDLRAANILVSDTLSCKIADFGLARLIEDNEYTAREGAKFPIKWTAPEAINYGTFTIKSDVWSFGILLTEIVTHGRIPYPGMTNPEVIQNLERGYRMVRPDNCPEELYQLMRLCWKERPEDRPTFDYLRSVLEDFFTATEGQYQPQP
UniProt Q16539, whole entry: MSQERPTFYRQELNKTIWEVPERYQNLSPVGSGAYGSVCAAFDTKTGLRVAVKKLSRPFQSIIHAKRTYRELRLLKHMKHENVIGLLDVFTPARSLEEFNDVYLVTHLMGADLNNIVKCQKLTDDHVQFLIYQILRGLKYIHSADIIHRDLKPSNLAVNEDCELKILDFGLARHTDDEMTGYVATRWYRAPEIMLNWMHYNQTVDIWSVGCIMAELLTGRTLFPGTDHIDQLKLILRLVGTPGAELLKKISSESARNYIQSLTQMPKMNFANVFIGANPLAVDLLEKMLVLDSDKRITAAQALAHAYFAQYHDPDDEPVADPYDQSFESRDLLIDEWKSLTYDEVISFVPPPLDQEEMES

Assays:
Lck = Lck (Homo sapiens, UniProt P06239)
p38α = p38α (Homo sapiens, UniProt Q16539)

WH-4-023
IC50 (Lck): 2 nM | inhibition on p38α (p38α): little inhibition
